{
  "source": "paper PMC12299981",
  "about": "“Human Metabolism of Sirolimus Revisited” (Metabolites, 2025)",
  "test_system": "pooled human liver microsomes (HLM)",
  "experiment": "Formation kinetics of SRL metabolites by pooled human liver microsomes",
  "type": "in vitro ADME",
  "conditions": "for Km: apparent Km of formation of the metabolite from sirolimus, Michaelis–Menten fit, n = 4; for CLint: apparent intrinsic clearance of formation of the metabolite, CLint = Vmax/Km",
  "description": "Apparent enzyme kinetic parameters for the major SRL metabolites were assessed. […] Before the addition of the SRL, the NADPH-generating system was preincubated at 37 °C (type C24 incubator shaker, New Brunswick Scientific, Edison, NJ, USA) for 5 min. […] The final volume of the reaction solution was 500 μL, and the reaction was quenched by the addition of a 1:1 volume of ice-cold acetonitrile. Following protein precipitation, samples were briefly vortexed and subsequently centrifuged at 4 °C and 13,000× g for 10 min. The supernatant was transferred to a 2-mL HPLC glass vial and analyzed using high-performance liquid chromatography/tandem mass spectrometry (LC-MS/MS). Representative control incubations without HLMs, without drug, or without the NADPH-generating system (all in quadruplicate) were carried out under the same conditions with every SRL HLM metabolism batch.\nFor data analysis, we utilized Sciex Analyst Software (version TF1.7.1) to process and interpret mass spectrometry data. […] Kinetics data was fitted using the GraphPad Prism Enzyme Kinetics Module (Version 10.0.2, for Windows, GraphPad Software, Boston, MA, USA).\nThe formation rates of hydroxy SRL and desmethyl SRL were analyzed and fitted using Michaelis–Menten kinetics. This approach enables the determination of kinetic parameters such as Vmax (maximum reaction velocity) and Km (substrate concentration at half-maximal velocity), which provide insight into the enzymatic activity and substrate affinity for these metabolites. […] To compare the formation of the various metabolites and to predict the human hepatic clearance, the apparent intrinsic clearances of the formation of the metabolites (CLint = Vmax/Km) were calculated.",
  "data": [
    {"substance": "11-Hydroxy sirolimus [11-Hydroxy SRL]", "values": [
      {"measurement": "Km", "value": 9.58, "unit": "µM"},
      {"measurement": "CLint", "value": 0.65, "unit": "µL/mg protein/min"}
    ]},
    {"substance": "23/24-Hydroxy sirolimus [23/24-Hydroxy SRL]", "values": [
      {"measurement": "Km", "value": 20.8, "unit": "µM"},
      {"measurement": "CLint", "value": 0.11, "unit": "µL/mg protein/min"}
    ]},
    {"substance": "27-O-Desmethyl sirolimus [27-O-desmethyl SRL]", "values": [
      {"measurement": "CLint", "value": 0.06, "unit": "µL/mg protein/min"}
    ]}
  ]
}
